This data set concerns catalepsy. Kind of data set: Catalepsy bar test. Conditions: result in words; tested form: HCl.

Molecules are shown by their SMILES.

With `OC1(c2ccc(Cl)cc2)CC2CCC(C1)N2CCCSc1cccc(F)c1` (stereo not shown), the catalepsy in rats result is “demonstrates catalepsy”.

For the origin of these results see patent US11129831B2.
